# Source: PubChem BioAssay AID504329 (Southern Research Specialized Biocontainment Screening …, 2011)
# Only a part is listed here, and it is no random draw. Entries with a potency or affinity are not part of this list. Active and inactive are the calls of the source. No stated cut-off is given here; in the data, inconclusive means inhibition above about 27% without an active follow-up result; inactive means below that.
# Assay: H1N1 influenza NS1A inhibitors, functional cell based assay (AID 504329)
# Settings: percent inhibition, at 12.5 µM, stronger effect = higher value
row,Structure (SMILES),inhibition
1,CCC(=O)N(c1ccccc1)C1(COC)CCN(CCn2nnn(CC)c2=O)CC1,inactive: -3.66%
2,CCC(=O)N(c1ccccc1)C1(COC)CCN(CCc2cccs2)CC1,inactive: -0.96%
